Results reported in ChEMBL document CHEMBL2346591, “Oxadiazole-isopropylamides as potent and noncovalent proteasome inhibitors” (J Med Chem, 2013).

Test: Inhibition of chymotrypsin-like activity of rabbit 20s proteasome beta5 subunit using Suc-Leu-Leu-Val-Tyr-AMC as substrate after 1 hr by fluorescence assay
Design: species or system Oryctolagus cuniculus
Outline: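 Purified rabbit 20S proteasome at 1 nM, with or without compound, incubated 1 h at 37 °C in 50 mM Tris-HCl pH 7.6 with fluorogenic AMC peptide: 20 µM […] (CT-L), Bz-Val-Gly-Arg-AMC (T-L) or Z-Leu-Leu-Glu-AMC (PGPH-L).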

IC50: 32 nM
Structure (SMILES): CCCc1ccc(OCC(=O)N(Cc2nc(-c3cncnc3)no2)C(C)C)cc1
